Assay results from patent US20240217960A1, “TRIAZINE DERIVATIVE AS COVALENT INHIBITORS OF PI3K” (UNIVERSITÄT BASEL, priority 2021, published 2024).
pIC50, pKi: −log10 of the molar value.

Chains of the proteins cited; added tags and fusions are not shown.
UniProt P42336, whole entry: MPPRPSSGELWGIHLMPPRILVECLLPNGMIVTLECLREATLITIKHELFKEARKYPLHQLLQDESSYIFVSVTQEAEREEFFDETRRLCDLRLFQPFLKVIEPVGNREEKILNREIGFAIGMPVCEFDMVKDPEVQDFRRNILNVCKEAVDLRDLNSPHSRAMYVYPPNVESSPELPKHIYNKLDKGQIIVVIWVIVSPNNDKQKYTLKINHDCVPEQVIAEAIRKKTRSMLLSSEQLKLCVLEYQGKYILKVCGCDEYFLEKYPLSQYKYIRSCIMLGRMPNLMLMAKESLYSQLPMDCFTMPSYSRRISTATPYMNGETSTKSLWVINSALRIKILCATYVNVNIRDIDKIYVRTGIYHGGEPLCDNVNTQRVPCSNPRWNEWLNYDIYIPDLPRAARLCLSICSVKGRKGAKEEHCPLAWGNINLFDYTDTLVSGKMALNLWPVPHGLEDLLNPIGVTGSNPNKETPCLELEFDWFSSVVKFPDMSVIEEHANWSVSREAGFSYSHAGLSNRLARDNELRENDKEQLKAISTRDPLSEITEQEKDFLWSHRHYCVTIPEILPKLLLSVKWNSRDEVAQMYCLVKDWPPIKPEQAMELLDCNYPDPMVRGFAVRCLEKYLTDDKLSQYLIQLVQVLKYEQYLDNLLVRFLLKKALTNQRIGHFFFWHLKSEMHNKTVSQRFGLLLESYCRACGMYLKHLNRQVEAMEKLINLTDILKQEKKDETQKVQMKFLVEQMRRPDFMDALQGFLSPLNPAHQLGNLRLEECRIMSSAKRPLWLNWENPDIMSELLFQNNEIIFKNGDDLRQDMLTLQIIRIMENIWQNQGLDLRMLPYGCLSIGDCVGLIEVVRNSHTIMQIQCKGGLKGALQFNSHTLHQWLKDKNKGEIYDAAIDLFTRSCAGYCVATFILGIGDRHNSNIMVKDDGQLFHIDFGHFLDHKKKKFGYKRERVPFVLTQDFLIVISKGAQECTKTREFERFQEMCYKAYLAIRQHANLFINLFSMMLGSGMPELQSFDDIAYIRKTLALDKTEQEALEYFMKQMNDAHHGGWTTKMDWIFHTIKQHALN
UniProt P27986, whole entry partner: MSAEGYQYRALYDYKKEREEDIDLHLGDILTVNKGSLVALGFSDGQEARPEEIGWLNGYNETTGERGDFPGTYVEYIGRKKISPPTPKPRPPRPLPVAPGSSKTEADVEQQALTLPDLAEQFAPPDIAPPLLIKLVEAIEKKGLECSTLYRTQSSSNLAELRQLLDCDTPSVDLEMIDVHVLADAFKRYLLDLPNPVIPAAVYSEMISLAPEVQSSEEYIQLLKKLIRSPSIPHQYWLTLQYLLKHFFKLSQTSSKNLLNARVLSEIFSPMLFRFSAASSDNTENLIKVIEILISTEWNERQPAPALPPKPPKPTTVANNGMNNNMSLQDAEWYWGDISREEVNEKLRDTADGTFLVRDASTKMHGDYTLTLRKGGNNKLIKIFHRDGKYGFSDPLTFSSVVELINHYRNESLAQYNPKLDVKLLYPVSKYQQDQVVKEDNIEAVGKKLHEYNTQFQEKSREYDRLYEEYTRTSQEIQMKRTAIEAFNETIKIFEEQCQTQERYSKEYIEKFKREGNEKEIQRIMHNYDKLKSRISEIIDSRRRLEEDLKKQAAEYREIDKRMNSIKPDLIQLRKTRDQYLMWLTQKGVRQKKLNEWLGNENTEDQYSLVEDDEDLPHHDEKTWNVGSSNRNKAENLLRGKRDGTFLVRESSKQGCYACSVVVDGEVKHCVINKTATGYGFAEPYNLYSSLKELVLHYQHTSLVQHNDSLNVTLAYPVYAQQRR

Assays:
[1] = target: p110α (PI3Kα) (Homo sapiens, UniProt P42336); assay: Determination of kinetic constants (kinact, Ki) for p110α by LanthaScreen Technology; settings: read-out: Ki PI3Kα; dissociation constant of the first reversible binding; global fitting with KinTek
[2] = tested on: pSer473 of PKB/Akt in SKOV3 cells; assay: In Cell Western cellular PI3K signaling and IC50 determination; type: cell-based; settings: read-out: IC50 pPKB (S473) SKOV3, 2 or 3 independent measurements
Protocol: Protein phosphorylation was detected as follows: pSer473 of PKB/Akt with rabbit polyclonal antibody from Cell Signaling Technology (CST) (#4058) by In-Cell Western assays, where 1.2×10^4 SKOV3 cells/well in 96-well plates were plated (Cell Carrier, PerkinElmer) for 24 hours (37° C., 5% CO2), as described in Ref. ^25.

## CCC(=O)N1CCC(C(=O)N(C)CC(=O)N2CCN(c3nc(-c4cnc(N)nc4C(F)F)nc(N4CCOCC4)n3)CC2)CC1
[1]
  pKi: 8.21
[2]
  pIC50: 6.64
